The values that follow come from ChEMBL document CHEMBL3616427, “Design, synthesis, and biological evaluation of amide imidazole derivatives as novel metabolic enzyme CYP26A1 inhibitors” (Bioorg Med Chem, 2015).

The target of the assay is T1, Cytochrome P450 26A1 (Homo sapiens, UniProt O43174).
T1 sequence (O43174 whole entry): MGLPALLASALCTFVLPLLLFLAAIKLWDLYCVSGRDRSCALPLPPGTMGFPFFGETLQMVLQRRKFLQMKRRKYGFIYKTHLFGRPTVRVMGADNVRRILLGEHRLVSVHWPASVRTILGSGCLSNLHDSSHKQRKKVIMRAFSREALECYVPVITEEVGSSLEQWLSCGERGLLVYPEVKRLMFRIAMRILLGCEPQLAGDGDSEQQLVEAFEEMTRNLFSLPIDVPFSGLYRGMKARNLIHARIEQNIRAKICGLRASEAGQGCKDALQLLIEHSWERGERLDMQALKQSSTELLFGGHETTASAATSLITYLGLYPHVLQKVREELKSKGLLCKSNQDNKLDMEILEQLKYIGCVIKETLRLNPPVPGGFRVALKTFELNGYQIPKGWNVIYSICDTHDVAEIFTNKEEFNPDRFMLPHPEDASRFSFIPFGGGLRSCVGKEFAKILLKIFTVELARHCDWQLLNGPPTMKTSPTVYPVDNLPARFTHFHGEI
Put plainly: Inhibition of CYP26A1 in ATRA-induced human HL60 cell microsomes incubated for 30 mins in dark condition with NADPH and ATRA by HPLC method. It counts as cell-based, HL-60.

Each structure is given as a SMILES string.

Regarding `Clc1cccc(C(c2ccc3[nH]cnc3c2)n2ccnc2)c1` (stereo unspecified) [LIAROZOLE], the midpoint of inhibition, the IC50, lay at 890 nM.
